From patent publication US20060025342A1 (OSTEOTROPHIN, published 2006)

Assays:
[1] = target: T1, human PTH/PTHrP receptor (PTH1 receptor) (human, UniProt Q03431 27-593); assay: cell-based or functional assay
T1 sequence (looked up): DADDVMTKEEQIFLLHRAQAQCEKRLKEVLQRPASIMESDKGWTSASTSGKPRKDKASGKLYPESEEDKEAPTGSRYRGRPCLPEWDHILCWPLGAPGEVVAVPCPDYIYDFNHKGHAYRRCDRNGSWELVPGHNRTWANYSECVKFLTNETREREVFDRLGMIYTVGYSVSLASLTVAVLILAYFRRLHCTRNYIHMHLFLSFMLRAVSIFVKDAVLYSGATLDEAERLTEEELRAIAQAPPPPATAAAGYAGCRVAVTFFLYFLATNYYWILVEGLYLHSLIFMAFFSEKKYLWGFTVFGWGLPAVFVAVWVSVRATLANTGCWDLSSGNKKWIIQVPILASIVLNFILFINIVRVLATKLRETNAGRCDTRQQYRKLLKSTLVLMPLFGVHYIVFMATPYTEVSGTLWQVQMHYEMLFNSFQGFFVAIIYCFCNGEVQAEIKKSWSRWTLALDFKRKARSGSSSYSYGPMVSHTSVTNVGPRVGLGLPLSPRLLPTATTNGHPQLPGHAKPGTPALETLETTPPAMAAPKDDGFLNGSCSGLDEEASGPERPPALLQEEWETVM

[2] = target: T1, human PTH/PTHrP receptor (PTH1 receptor); assay: cell-based or functional assay; remark: listed apart in the source
[3] = target: T1, human PTH/PTHrP receptor (PTH1 receptor); assay: competition of 125I-(Tyr36)hPTHrP-(1-36)NH2 binding, SaOS-2 membranes, 30 C, 60 min
[4] = target: T1, human PTH/PTHrP receptor (PTH1 receptor); assay: competition of 125I-(Tyr36)hPTHrP-(1-36)NH2 binding, human renal cortical membranes, 30 C, 30 min
[5] = target: T1, human PTH/PTHrP receptor (PTH1 receptor); assay: as above; remark: listed apart in the source

| Binder | Adenylate cyclase (EC50), kidney membranes (human RCM) [1] [pM] | Adenylate cyclase (EC50), kidney membranes (human RCM) [2] [pM] | IC50 [3] [pM] | IC50 [4] [pM] | IC50 [5] [pM] |
| --- | --- | --- | --- | --- | --- |
| AVSEIQFMHNLGKHLSSMERVEWLRKKLQDVHNF (peptide, UniProt P01268 32-65, looked up, range 1-34; Synthetic, Bachem; also called bPTH-(1-34); bovine (b)PTH-(1-34)) [bovine PTH-(1-34)] | 260 | 260 |  |  |  |
| AVSEIQLMHNLGKHLASVERMQWLRKKLQDVHNF (peptide, UniProt P04089 32-65, looked up, range 1-34; Synthetic, Bachem; also called rPTH-(1-34); rat (r)PTH-(1-34)) [rat PTH-(1-34)] |  |  | 560 | 350 | 350 |

Read-outs that look alike come from different tables or passages of the source.
